Source: ChEMBL document CHEMBL5329219, “α-Aminophosphonate inhibitors of metallo-β-lactamases NDM-1 and VIM-2” (RSC Med Chem, 2023)
Active and inactive are the calls of the source. The rule behind the calls is not given here.

Sequences of proteins named here, by UniProt entry; tags and fusion partners are left off. A change or cut given only in a name is not applied to a line headed by its entry.
UniProt C7C422: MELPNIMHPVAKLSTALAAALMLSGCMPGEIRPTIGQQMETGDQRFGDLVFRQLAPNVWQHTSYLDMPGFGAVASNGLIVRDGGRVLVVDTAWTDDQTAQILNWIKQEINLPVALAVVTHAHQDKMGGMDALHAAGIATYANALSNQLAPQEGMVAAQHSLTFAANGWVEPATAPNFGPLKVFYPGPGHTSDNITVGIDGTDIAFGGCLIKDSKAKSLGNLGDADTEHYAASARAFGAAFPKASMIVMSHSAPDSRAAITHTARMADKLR

Biological target: Metallo-beta-lactamase type 2 (Bacteria) (UniProt C7C422)
Assay: Inhibition of bacterial metallo-beta-lactamase NDM-1 preincubated for 5 mins followed by imipenem addition by spectrophotometer analysis
Outline: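 Purified NDM-1 (10 nM) in 50 mM HEPES pH 7.2 with 100 μM ZnCl2, 2.5% DMSO and 400 μg ml−1 BSA, preincubated with inhibitor (twelve concentrations, 0–800 μM) at 25 °C for 5 min. Reaction started with 100 μM imipenem and absorbance read at 300 nm. Triplicates; IC50 from initial velocities by log[inhibitor] vs. response fit.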

Compound | inhibition
Cl.O=C(NC(C1CCCCN1)P(=O)(O)O)c1ccsc1 (stereo not drawn) | inactive
Cl.O=C(NC(C1CCCCN1)P(=O)(O)O)c1cccs1 (stereo not drawn) | inactive
Cl.O=C(Cc1ccsc1)NC(C1CCCCN1)P(=O)(O)O (stereo not drawn) | inactive
